Laboratory results published in US20050260693A1 (MOUNT SINAI SCHOOL OF MEDICINE, published 2005).

Amino acid sequences for entries named in this document (tags omitted).
UniProt P25322, whole entry: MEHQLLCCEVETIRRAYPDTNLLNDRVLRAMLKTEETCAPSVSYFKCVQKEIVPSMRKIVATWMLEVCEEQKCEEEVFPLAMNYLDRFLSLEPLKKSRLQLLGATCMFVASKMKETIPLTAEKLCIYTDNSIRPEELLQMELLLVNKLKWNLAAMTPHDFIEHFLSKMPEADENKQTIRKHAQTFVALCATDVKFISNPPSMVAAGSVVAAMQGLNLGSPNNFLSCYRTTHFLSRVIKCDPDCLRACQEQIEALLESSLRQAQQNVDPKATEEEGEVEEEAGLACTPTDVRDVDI

Molecular target: T1, cyclin D1 (endogenous and ectopic) of S24, S24/D1, S24/V and V3 cells (UniProt P25322)
T1 construct: also called endogenous and ectopic D1
Experiment: GST pull-down on glutathione-Sepharose, anti-cyclin D1 immunoblot
Method: Cyclin D1 pull-down assays were performed as described previously (Chen et al., 1996, Cancer Res. 56:3168-3172 (Erratum, 56:4074)). Briefly, cells were lysed in binding buffer (20 mM Tris-HCl pH7.4, 1 mM EDTA, 25 mM NaCl, 10% glycerol, 0.01% Nonidet P-40, 1 mM each of DTT, Na3VO4 and PMSF, 2 μg/ml each of aprotinin, leupeptin, antipain, pepstatin A). 500 μg of the lysates were incubated with 15 μg of GST-SSeCKS2 or GST prebound to glutathione-Sepharose beads for 3 h at 40° C. on a rotating wheel. After 4 washes in binding buffer, the beads were boiled in protein loading dye, and the proteins analyzed by immunoblotting using anti-cyclin D1 antibody.
SSeCKS binds G1 phase cyclins in vitro via tandem CY motifs. A so-called cyclin-binding (CY) motif which facilitates the binding of cyclins to several cell cycle components such as p21 (Chen et al., 1996, Mol. Cell. Biol. 16:4673-4682). SSeCKS encodes two closely spaced potential CY motifs, KKLFSxxxxKKLSG (K/RK/R followed by two nonpolar residues, with the first usually Leu). This domain also contains two major in vivo PKC sites, Ser507 and Ser515 (Lin et al., 1996, J. Biol. Chem. 271:28430-28438; Chapline et al., 1996, J. Biol. Chem. 271:6417-6422). It was tested whether a GST fusion protein containing the SSeCKS CY motifs (“SSeCKS-2”) could bind G1 phase cyclins in an in vitro pulldown assay. […]

B1: GST protein alone (other, UniProt P08515 1-218, looked up)
chain: MSPILGYWKIKGLVQPTRLLLEYLEEKYEEHLYERDEGDKWRNKKFELGLEFPNLPYYIDGDVKLTQSMAIIRYIADKHNMLGGCPKERAEISMLEGAVLDIRYGVSRIAYSKDFETLKVDFLSKLPEMLKMFEDRLCHKTYLNGDHVTHPDFMLYDALDVVLYMDPMCLDAFPKLVCFKKRIEAIPQIDKYLKSSKYIAWPLQGWQATFGGGDHPPK
notes: Control protein; also called GST alone
**Q.** Does B1 bind?
**A.** Result: no binding (tested: 15 µg of GST per 500 µg of lysate)
